“Also recorded” adds a separate entry of the source.
What was measured:
[1] = biological target: T1, KRAS^wt (Homo sapiens, UniProt P01116); test: Fluorescence anisotropy titration with KRAS^wt; assay type: binding; settings: 15 nM peptide without Pd(II), increasing KRAS, Tris-HCl 20 mM pH 7.5, 100 mM NaCl, 25 °C
T1 construct: 6xHis (6H) (N); TEV cleavage site (N); host or cells: E. coli BL21

[2] = biological target: T2, KRAS^wt/mantGTP complex (Homo sapiens, UniProt P01116); test: Nucleotide release assay (mantGTP displacement); assay type: biochemical; settings: 1 μM KRAS^wt/mantGTP, 10 μM peptide, 20 mM Tris-HCl pH 7.5, 50 mM NaCl, 1 mM MgCl2, 1 mM DTT; emission 430 nm over 30 min; intrinsic half-life about 7 min
T2 construct: 6xHis (6H) (N); TEV cleavage site (N); host or cells: E. coli BL21

half-life of the KRAS^wt/mantGTP complex [2]: ≈ 5 min
Substance: TMR-Ahx-RRFFGIHLTNHLKTEEGN [αH-His2]
binding to KRAS (change of TMR fluorescence anisotropy), in words [1]: low binding affinity; also recorded: no significant binding

From paper PMC9814687, “Controlling oncogenic KRAS signaling pathways with a Palladium-responsive peptide” (Communications Chemistry, 2022)
